{
  "source": "patent US5609897A",
  "about": "“Powdered beverage concentrate or additive fortified with calcium and vitamin D” (priority 1995, dated 1997)",
  "key": {"[1]": {"conditions": "pH 3.5"}, "[2]": {"conditions": "rat, in vivo, 30240 min; cited from earlier work"}},
  "data": [
    {"substance": "Calcium Glycerophosphate [CaGP]", "values": [
      {"measurement": "Solubility", "setting": "[1]", "result": "soluble"},
      {"measurement": "Solubility over one month", "setting": "[1]", "result": "remained soluble at pH 3.5 for at least one month"},
      {"measurement": "Relative calcium bioavailability", "setting": "[2]", "result": 106, "unit": "%"}
    ]}
  ]
}
